Assays:
[1] = target: Doc (Salmonella Typhimurium) (UniProt Q06259); conditions: cited from earlier work
DocSTm = assay: Surface plasmon resonance binding to immobilised Doc; parameters: species or system S. Typhimurium; conditions: SPR kinetic fit
Description: Experiments were performed in a Biacore S200 (Cytiva) with a Series S sensor chip NTA (Cytiva). The data was analyzed using the Biacore Evaluation Software (Cytiva) and curves were plotted using GraphPad Prism 5 (GraphPad Software, U.S.A.). All experiments were performed at 22 °C with a running buffer containing 10 mM HEPES, 500 mM NaCl, 50 μM EDTA, and 0.005% (v/v) TWEEN 20 at pH 8.0. The surface was conditioned following the standard manufacturer’s guidelines and protein immobilization was performed with a 30–60 s pulse (flow rate of 5 μL/min) of Doc (150 nM) in running buffer. […] Surface regeneration was performed with a 1 min pulse of 0.5 M imidazole followed by a 1 min pulse of 0.35 M of EDTA at pH 8.0.
Binding to Doc was performed using a multicycle kinetics (MCK) setup for peptides 7, 10, and 14, while the remaining samples were tested using a single-cycle kinetics (SCK) setup. The surface was fully regenerated in between each analyte in both cases. In the MCK experiments, increasing concentrations of each analyte were injected with an 80 s pulse (30 μL/min) and dissociation times varied depending on the time required to fully dissociate the complex. The double-referenced sensorgrams (raw data subtracted from a blank injection and reference surface responses) were analyzed using a kinetic and/or a steady-state 1:1 binding model. In the SCK experiments, typically six concentrations of each analyte were sequentially injected with 80 s pulses (30 μL/min), and dissociation times varied depending on the time required to dissociate at least 5% of the complex. The double-referenced sensorgrams were fitted using a kinetic 1:1 binding model.
At least three independent replicates were measured for each analyte (ESI section 5). When a steady-state fit was applied, the reported Kd and its uncertainty correspond, respectively, to the average and standard deviations of the Kd obtained in each measurement. […] In this case, reported Kd were calculated using the equation below, and the standard deviation of the rate constants was propagated. […]

By UniProt entry, the sequences of proteins in these tests, tags left out. Where a name states a change or a piece, a line headed by the entry shows the natural chain unless it says otherwise.
UniProt Q06259: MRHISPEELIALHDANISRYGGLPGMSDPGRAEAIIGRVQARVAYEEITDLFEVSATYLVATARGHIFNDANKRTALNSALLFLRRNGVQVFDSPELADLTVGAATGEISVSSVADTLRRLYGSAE

Row | Substance | Kd [1] [nM] | Kd (DocSTm; replicate 1) [nM] | Kd (DocSTm; replicate 2) [nM] | Kd (DocSTm; replicate 3) [nM]
1 | Phd (from UniProt Q06253) | 350 |  |  | 
2 | PhdSTm: full-length wild-type Phd antitoxin protein of S. Typhimurium |  | 0.0507 | 0.0505 | 0.0883
